The results in this text go back to ChEMBL document CHEMBL3745662, “Preliminary investigation of 6,7-dihydropyrazolo[1,5-a]pyrazin-4-one derivatives as a novel series of mGlu5 receptor positive allosteric modulators with efficacy in preclinical models of schizophrenia” (Bioorg Med Chem Lett, 2016).

The species entered for this experiment is Homo sapiens. Put plainly: Selectivity index, ratio of EC50 for antagonist activity at human mGlu3 to EC50 for positive allosteric modulation of human mGlu5.

Each structure is given as a SMILES string.

On to `O=C1c2cc(OCc3ccccc3)nn2CCN1c1ccc(F)cc1`, for which the Ratio EC50 came out at 21.
